Laboratory results published in patent publication US20230302100A1.

Biological target: denosumab (XGEVA)
Test: cell-based or functional assay

## IdeS BX1001865 (enzyme)
  Conc. of enzyme for 1st IgG heavy chain cleavage (IgG to scIgG), SDS-PAGE: 14 ng/mL
  Conc. of enzyme for 2nd IgG2 (XGEVA) heavy chain cleavage (scIgG to F(ab')2), SDS-PAGE: 1100 ng/mL
